Reference: EP4831169A1, “NOVEL COMPOUND USED AS CBP/P300 INHIBITOR, AND PHARMACEUTICAL COMPOSITION FOR PREVENTING OR TREATING CANCER, INFLAMMATORY DISORDERS, OR AUTOIMMUNE DISEASES COMPRISING SAME AS ACTIVE INGREDIENT” (dated 2026)

The chains behind the UniProt entries cited, without tags or fusion partners. Residues count along the entry.
UniProt Q92793, 1085-1192 limits assumed: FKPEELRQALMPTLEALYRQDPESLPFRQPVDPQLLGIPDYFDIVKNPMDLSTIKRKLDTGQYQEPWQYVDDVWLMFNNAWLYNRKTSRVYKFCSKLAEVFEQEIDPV

Key:
BRD4 (BD1) protein = BRD4 (BD1) protein (Homo sapiens, UniProt O60885); test: BRD4 bromodomain TR-FRET inhibitory activity assay; details: read-out: BRD4 (BD1) IC50, Table 4
Method: BRD inhibitory activity was measured using a time resolved fluorescence resonance energy transfer (TR-FRET) experiment to verify the activity of BRD4 bromodomain.
The assay was performed in a final volume of 14 µL, optimized based on a CREBBP time resolved fluorescence resonance energy transfer (TR-FRET) assay kit (BPS Bioscience, cat. 32613) to maximize an assay window, and performed in a final volume of 14 µL, while maximizing the assay window. A TR-FRET fluorescence acceptor and a Tb donor were diluted in an assay buffer containing 2-[4-(2-hydroxyethyl)piperazin-1-yl]ethanesulfonic acid (HEPES) (hereafter, referred to as an assay buffer, BPS Bioscience, cat. 33012), and 3 µL of each solution was transferred to all wells of a white 384-low-volume well plate (Corning, cat. 4513). 2 µL of 4X Ac-H4 peptide (final concentration 15 nM) was transferred to high control wells and test wells. Each compound was prepared at 10 concentration points by serially diluting 3-fold from the highest concentration in a dimethyl sulfoxide (DMSO) solvent. The compound at each concentration was then diluted in the assay buffer to prepare a diluted compound solution that was 4-fold more concentrated than the final concentration. 2 µL of each compound or dimethyl sulfoxide prepared in this way was distributed into an assay plate so that the final test concentration was a minimum of 0.5 µM to a maximum of 10 µM (final DMSO concentration 1%). 6 µL of 1X assay buffer was added to low control wells and 2 µL was added to high control and test wells. Then, 2 µL of 4X BRD4 (BD1) protein (final concentration 7.5 nM, BPS bioscience, cat 31040) was added to initiate a PPI reaction. The plate was reacted at room temperature for 2 hours before measuring the signal. The TR-FRET signal was measured using an EnVision Multilabel plate reader (PerkinElmer; Mirror LNACE/DELFIA Dual/Bias). For data analysis, the values of each well were obtained using the TR-FRET ratio ((Signal 665 nm/Signal 615 nm)×20000). Data analysis was performed using the TR-FRET ratio ((Signal 665 nm/Signal 615 nm)×20000). Data were reported as percent inhibition compared to control wells based on the following equation: %Activity = ((FRETcompound - FRETLow av)/(FRETHigh av - FRETLow av))×100. IC50 analysis was determined by standard 4 parameter curve fitting according to an algorithm using GraphPad Prism 7.0 (GraphPad Software Inc., La Jolla, CA, USA). All data are expressed as mean ± standard error of the mean (SEM).

CBP BRD protein = CBP BRD protein (Homo sapiens, UniProt Q92793); test: CBP bromodomain TR-FRET inhibitory activity assay; details: read-out: CBP BRD IC50, Table 3
Method: A time resolved fluorescence resonance energy transfer (TR-FRET) experiment was used to verify the activity of CBP bromodomain.
The assay was performed in a final volume of 14 µL, optimized based on a CREBBP time resolved fluorescence resonance energy transfer (TR-FRET) assay kit (BPS Bioscience, cat. 32619) to maximize an assay window, and performed in a final volume of 14 µL, while maximizing the assay window. A TR-FRET fluorescence acceptor and a Tb donor were diluted in an assay buffer containing 2-[4-(2-hydroxyethyl)piperazin-1-yl]ethanesulfonic acid (HEPES) (hereafter, referred to as an assay buffer, BPS Bioscience, cat. 33012), and 3 µL of each solution was transferred to all wells of a white 384-low-volume well plate (Corning, cat. 4513). 2 µL of 4X Ac-H4 peptide (final concentration 85 nM) was transferred to high control wells and test wells. Each compound was prepared at 10 concentration points by serially diluting 3-fold from the highest concentration in a dimethyl sulfoxide solvent. The compound at each concentration was then diluted in the assay buffer to prepare a diluted compound solution that was 4-fold more concentrated than the final concentration. 2 µL of each compound or dimethyl sulfoxide prepared in this way was distributed into an assay plate so that the final test concentration was a minimum of 0.5 µM to a maximum of 10 µM (final dimethyl sulfoxide concentration 1%). 6 µL of 1X assay buffer was added to low control wells and 2 µl was added to high control and test wells. Then, 2 µL of 4X CBP BRD protein (final concentration 7.5 nM, BPS bioscience, cat 31128) was added to initiate a PPI reaction. The plate was reacted at room temperature for 2 hours before measuring the signal. The TR-FRET signal was measured using an EnVision Multilabel plate reader (PerkinElmer; Mirror LNACE/DELFIA Dual/Bias). For data analysis, the values of each well were obtained using a TR-FRET ratio ((Signal 665 nm/Signal 615 nm)×20000). Data analysis was performed using the TR-FRET ratio ((Signal 665 nm/Signal 615 nm)×20000). Data were reported as percent inhibition compared to control wells based on the following equation: %Activity = ((FRETcompound - FRETLow av)/(FRETHigh av - FRETLow av))×100. IC50 analysis was determined by standard 4 parameter curve fitting according to an algorithm using GraphPad Prism 7.0 (GraphPad Software Inc., La Jolla, CA, USA). All data are expressed as mean ± standard error of the mean (SEM).

Structure (SMILES)	IC50 (BRD4 (BD1) protein) [µM]	IC50 (CBP BRD protein) [µM]
Cn1cc(-c2cc3nc(-c4cncn4C)n(-c4cc(C5CCOCC5)c5c(c4)n(C)c(=O)n5C)c3cc2C#N)cn1	> 5	< 0.5
CNCc1cc2c(cc1-c1cnn(C)c1)nc(C(C)(C)C)n2-c1cc(N2CCOCC2)c2c(c1)n(C)c(=O)n2C	> 5	0.5 to 5
Cc1nnc(-c2cc3nc(C(C)(C)C)n(-c4cc(N5CCOCC5)c5c(c4)n(C)c(=O)n5C)c3cc2F)[nH]1	> 5	< 0.5
Cn1cc(-c2cc3nc(C(C)(C)C)n(-c4cc(OC5COC5)c5c(c4)n(C)c(=O)n5C)c3cc2C(F)F)cn1	> 5	< 0.5
Cn1cc(-c2cc3nc(C(C)(C)C)n(-c4cc(N5CC(C)(O)C5)c5c(c4)n(C)c(=O)n5C)c3cc2OC(F)F)cn1	0.5 to 5	< 0.5
Cn1cc(-c2cc3nc(C(C)(C)C)n(-c4cc(OCCN5CCOCC5)c5c(c4)n(C)c(=O)n5C)c3cc2C(F)F)cn1	> 5	< 0.5
Cc1sccc1-c1nc2cc(C3=CCOCC3)c(F)cc2n1-c1cc(C2CCOCC2)c2c(c1)n(C)c(=O)n2C	> 5	0.5 to 5
Cn1cncc1-c1nc2cc(-c3cnn(C4CC4)c3)c(F)cc2n1-c1cc(N2CCOCC2)c2c(c1)n(C)c(=O)n2C	> 5	< 0.5
Cn1cc(-c2cc3nc(C(C)(C)C)n(-c4cc(NCC5(C)COC(=O)N5)c5c(c4)n(C)c(=O)n5C)c3cc2C(F)F)cn1 (stereo not shown)	> 5	< 0.5
Cc1ccc2c(-c3nc4cc(-c5cnn(C)c5)c(C(C)(C)O)cc4n3-c3ccc4c(c3)n(C)c(=O)n4C)c[nH]c2c1	0.5 to 5	< 0.5
Cn1cc(-c2cc3nc(C(C)(C)C)n(-c4cc(N5CC(C)(O)C5)c5c(c4)n(C)c(=O)n5C)c3cc2N)cn1	> 5	< 0.5
Cn1cc(-c2cc3nc(-c4cncn4C)n(-c4cc(N5C[C@@H]6C[C@H]5CO6)c5c(c4)n(C)c(=O)n5C)c3cc2F)cn1	0.5 to 5	< 0.5
Cn1cc(-c2cc3nc(C(C)(C)C)n(-c4cc(N5CC(C)(O)C5)c5c(c4)n(C)c(=O)n5C)c3cc2O)cn1	> 5	< 0.5
Cn1cc(-c2cc3nc(-c4cncn4C)n(-c4cc(N5CCN(C(=O)OC(C)(C)C)CC5)c5c(c4)n(C)c(=O)n5C)c3cc2F)cn1	> 5	< 0.5
Cn1cc(-c2cc3nc(C(C)(C)C)n(-c4cc(N5CCC(O)CC5)c5c(c4)n(C)c(=O)n5C)c3cc2C(F)F)cn1	> 5	< 0.5
CC(C)Oc1cc(-n2c(C(C)(C)C)nc3cc(-c4cnn(C)c4)c(F)cc32)cc2c1n(C)c(=O)n2C	> 5	< 0.5
Cc1ncc(-c2cc3nc(C(C)(C)C)n(-c4cc(N5CCOCC5)c5c(c4)n(C)c(=O)n5C)c3cc2C(F)(F)F)s1	> 5	< 0.5
CC(C)c1cc(-n2c(C(C)(C)c3ccccc3)nc3cc(-c4cnn(C)c4)c(F)cc32)cc2c1n(C)c(=O)n2C	> 5	> 5
Cn1cc(-c2cc3nc(C(C)(C)C)n(-c4ccc5c(c4)n(C)c(=O)n5C)c3cc2C(=O)O)cn1	> 5	0.5 to 5
Cc1ccc2c(-c3nc4cc(-c5cnn(C)c5)c(C(=O)O)cc4n3-c3ccc4c(c3)n(C)c(=O)n4C)c[nH]c2c1	> 5	< 0.5
Cn1cc(-c2cc3nc(C(C)(C)C)n(-c4cc(N5CCOCC5)c5c(c4)n(C)c(=O)n5C)c3cn2)cn1	> 5	< 0.5

Structure (SMILES)	IC50 (BRD4 (BD1) protein) [µM]	IC50 (CBP BRD protein) [µM]
Cn1cc(-c2cc3nc(C(C)(C)C)n(-c4cc(N5CCC(O)CC5)c5c(c4)n(C)c(=O)n5C)c3cc2C(F)(F)F)cn1	> 5	< 0.5
Cc1ncc(-c2cc3nc(-c4cncn4C)n(-c4cc(N5CCSCC5)c5c(c4)n(C)c(=O)n5C)c3cc2C(F)F)s1	> 5	< 0.5
CC(C)Nc1cc(-n2c(-c3cncn3C)nc3cc(-c4cnn(C)c4)c(C#N)cc32)cc2c1n(C)c(=O)n2C	> 5	< 0.5
Cn1c(=O)n(C)c2c(C3CCOCC3)cc(-n3c(C(F)(F)F)nc4cc(C5=CCOCC5)c(F)cc43)cc21	> 5	> 5
Cn1c(=O)n(C)c2c(N3CC(C)(O)C3)cc(-n3c(C(C)(C)C)nc4cc(-c5ccc(N)cc5)c(C(F)F)cc43)cc21	> 5	< 0.5
Cn1cncc1-c1nc2cc(-c3ccc(N)cc3)c(F)cc2n1-c1cc(C2CCOCC2)c2c(c1)n(C)c(=O)n2C	> 5	< 0.5
Cn1cc(-c2cc3nc(-c4cncn4C)n(-c4cc(N5CCCCC5)c5c(c4)n(C)c(=O)n5C)c3cc2F)cn1	> 5	< 0.5
CC(=O)Nc1ccc(-c2cc3nc(-c4cncn4C)n(-c4cc(NC5CCCC5)c5c(c4)n(C)c(=O)n5C)c3cc2F)cc1	> 5	< 0.5
CC(=O)Nc1ccc(-c2cc3nc(-c4cncn4C)n(-c4cc(C5=CCN(C)CC5)c5c(c4)n(C)c(=O)n5C)c3cc2F)cc1	> 5	< 0.5
Cn1cc(-c2cc3nc(C(C)(C)C)n(-c4cc(N5CC(C)(O)C5)c5c(c4)n(C)c(=O)n5C)c3cc2OCc2ccccc2)cn1	> 5	< 0.5
COc1ccccc1-c1cc(-n2c(-c3cncn3C)nc3cc(-c4cnn(C)c4)c(F)cc32)cc2c1n(C)c(=O)n2C	> 5	< 0.5
CC(C)Nc1cc(-n2c(C(C)(C)C)nc3cc(-c4ccnc(N)c4)c(F)cc32)cc2c1n(C)c(=O)n2C	> 5	0.5 to 5
Cn1cc(-c2cc3nc(-c4cncn4C)n(-c4cc(-c5ccc(F)cc5)c5c(c4)n(C)c(=O)n5C)c3cc2F)cn1	> 5	< 0.5
Cc1ccc2c(-c3nc4cc(-c5cnn(C)c5)c(C#N)cc4n3-c3ccc4c(c3)n(C)c(=O)n4C)c[nH]c2c1	> 5	0.5 to 5
Cn1cc(-c2cc3nc(C(C)(C)C)n(-c4cc(N5CCOCC5)c5c(c4)n(C)c(=O)n5C)c3cc2CN2CCOCC2)cn1	> 5	0.5 to 5
CC(C)Oc1cc(-n2c(-c3cncn3C)nc3cc(-c4cnn(C)c4)c(C(F)F)cc32)cc2c1n(C)c(=O)n2C	0.5 to 5	< 0.5
C#CC(C)(C)c1nc2cc(-c3cnn(C)c3)c(F)cc2n1-c1cc(C(C)C)c2c(c1)n(C)c(=O)n2C	> 5	< 0.5
Cn1cc(-c2cc3nc(C(C)(C)C)n(-c4cc(N5CCOCC5)c5c(c4)n(C)c(=O)n5C)c3cc2C(=O)O)cn1	> 5	< 0.5
Cn1c(=O)n(C)c2c(N3CC(C)(O)C3)cc(-n3c(C(C)(C)C)nc4cc(N5CCCC5=O)c(C(F)F)cc43)cc21	> 5	< 0.5
COC(C)c1cc(-n2c(-c3cncn3C)nc3cc(-c4cnn(C)c4)c(F)cc32)cc2c1n(C)c(=O)n2C (stereo not shown)	> 5	0.5 to 5
